The values below come from paper PMC6204821, “Inhibitory effect of microalgae and cyanobacteria extracts on influenza virus replication and neuraminidase activity” (PeerJ, 2018).

What all share (type): biochemical
The target of assay [1] is neuraminidase of B/Brisbane/60/2008 Vic (WT) (Influenza B virus, UniProt C0LT34). The following applies: read-out: IC50 NA B/Brisbane/60/2008 Vic (WT).
The target of assay [2] is neuraminidase of B/Perth/211/2001 Yam (WT) (Influenza B virus, UniProt Q3S340). The following applies: read-out: IC50 NA B/Perth/211/2001 Yam (WT).
Assay [3] concerns the target neuraminidase of A(H1N1)pdm09-WT (Influenza A virus, UniProt C3W5S3). The following applies: read-out: IC50 NA A(H1N1)pdm09-WT.

`CCC(CC)O[C@@H]1C=C(C(=O)O)C[C@H](N)[C@H]1NC(C)=O` [OST-car, Oseltamivir carboxylate]: the IC50 in assay [1] is 3 ± 0.5 nM; in assay [2], 5 ± 1 nM; in assay [3], 0.1 ± 0.2 nM.
